From PMC8922281, “Synthesis and In Vitro Biological Evaluation of Quinolinyl Pyrimidines Targeting Type II NADH-Dehydrogenase (NDH-2)” (ACS Infectious Diseases, 2022)
Read-outs that look alike come from different tables or passages of the source.

The chains behind the UniProt entries cited, without tags or fusion partners. Residues count along the entry.
UniProt A0QYD6, 1-457: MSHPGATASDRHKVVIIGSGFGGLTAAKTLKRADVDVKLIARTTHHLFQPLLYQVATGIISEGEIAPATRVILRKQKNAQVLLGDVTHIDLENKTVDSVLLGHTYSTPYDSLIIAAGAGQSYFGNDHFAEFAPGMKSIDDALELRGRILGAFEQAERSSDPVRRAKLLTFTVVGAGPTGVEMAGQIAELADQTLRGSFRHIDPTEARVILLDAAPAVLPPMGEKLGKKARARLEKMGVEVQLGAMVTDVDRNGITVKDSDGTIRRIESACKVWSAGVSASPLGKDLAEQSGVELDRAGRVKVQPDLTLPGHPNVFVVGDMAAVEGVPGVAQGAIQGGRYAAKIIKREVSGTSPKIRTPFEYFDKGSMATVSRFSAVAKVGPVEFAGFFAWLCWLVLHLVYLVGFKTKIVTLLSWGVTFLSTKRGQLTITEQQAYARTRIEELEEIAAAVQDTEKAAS

Tests used:
[1] = molecular target: T1, MsNDH-2 (Mycolicibacterium smegmatis, UniProt A0QYD6); assay: Inhibition of MsNDH-2 (NADH oxidation with menadione, absorbance at 340 nm); format: biochemical, M. smegmatis; conditions: same IC50 given in μg/mL to assist comparisons with MICs
[2] = molecular target: T1, MsNDH-2; parameters: method as in PMID 19564154; conditions: value published earlier; cited from earlier work

Polymyxin B [reference compound]
MsNDH-2 IC50 [1]: 2.5 µg/mL
MsNDH-2 IC50 [2]: 1.6 µg/mL
